These results are taken from patent US9243019B2 (priority 2013, dated 2016).

For this assay, the system named is acute cerebral ischemia. The note with it: positive control group, 24 h, TTC.

`COCCOC(=O)C1=C(C)NC(C)=C(C(=O)OC(C)C)C1c1cccc([N+](=O)[O-])c1` (stereo not shown) [nimodipine]: the cerebral infarction area was 15.4%.
